Where two headings read alike, the source gives them in different places.
Details: human, in vivo

Measured: Ibuprofen blood level

CC(C)Cc1ccc(C(C)C(=O)O)cc1 (stereo not drawn) [PROFLEX]
0.09: 0.25 h | 0.5 h | 6 h

From US5990096A, “Formulations containing hyaluronic acid” (priority 1992, dated 1999)
